## Binding of CDR-mutated scFvs to a peptide of the spike HR2 region

The measurements come from Li et al. 2023 (doi:10.1038/s41467-023-39022-2) through the FLAb antibody collection.

Antigen: PDVDLGDISGINAS, a 14-residue peptide of the SARS-CoV-2 spike HR2 region.

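Phage display of a naive human antibody library on the peptide gave the parent. Designed CDR sequences, proposed from the first random library and measured here. Group labels follow the data file (Ctrl: baseline library sampled from a position-specific scoring matrix, with some repeated check sequences; Rand: our label for a block that the file lists under HC and that is probably the random mutants of the ten best first-round binders; En: ensemble of fine-tuned language models; GP: Gaussian process model; HC: hill climbing; Gen: genetic algorithm; Gibbs: Gibbs sampling; a sequence that several methods proposed may carry one label only). The scFvs were displayed on barcoded MATa yeast, the peptide on MATalpha yeast. Binding brings cells together so that they mate, and sequencing counts the barcode pairs among the diploids. Each replicate has its own calibration line, from reference interactions of the BCL2 family. Mating was done six times.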

Parent scFv Ab-14: VH joined to VL by a 15-residue (Gly4Ser)3 linker. Changes lie in the light chain CDRs alone.
VH: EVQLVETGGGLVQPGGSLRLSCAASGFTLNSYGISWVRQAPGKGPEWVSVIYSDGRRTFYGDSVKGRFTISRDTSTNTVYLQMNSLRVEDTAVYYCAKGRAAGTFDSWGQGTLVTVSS
VL: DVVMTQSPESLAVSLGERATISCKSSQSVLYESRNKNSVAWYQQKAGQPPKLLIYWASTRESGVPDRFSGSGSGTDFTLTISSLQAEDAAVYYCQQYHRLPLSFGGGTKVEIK

Each variant is given by its three light chain CDRs, as the data file delimits them; those of the parent are KSSQSVLYESRNKNSVA, WASTRES, QQYHRLPLS. The read-out is the apparent dissociation constant on a log10 scale (nM): the lower, the stronger. Averages over replicates are reported, and they cover detected replicates only. "no signal" means that the variant was in the library but no mating with the target was seen in any replicate; the authors take this as a sign of poor binding, and no number exists. The range of this assay differs from that of the first round, and the authors advise against merging the two. As a blank, each scFv also met three strains without target: over all light chain designs, 4% of these pairings were detected, typically at 2.64 and seldom below 1.59. The parent sequence was in this pool as ten entries: three were never detected, three once, and four in most replicates, with averages from 0.34 to 2.37. In the paper, a design with two or fewer of six values counts as a poor binder.

CDR-L1,CDR-L2,CDR-L3,group,"log10 Kd (nM), mean",detected
KLMQLGHYGSRNANNVA,NASQREQ,QQYHRLPLS,GP_Gibbs,-0.04,6 of 6
KLDISELGESRNWNSVA,NASQREE,QQYHRLPLW,GP_Gibbs,0.12,6 of 6
KLSIMGLHQTIDKKSIA,ERSTREN,QQYHRLPLS,En_HC,0.33,6 of 6
KLAMILSMQAGTYHGVA,DANHKAD,QQYNRLPLS,En_Gibbs,0.06,6 of 6
KSSQSVMEESRNKNSVA,WASTRES,QQGHRLPLT,Ctrl,1.80,3 of 6
IIYESVGTLSRNTNSVA,DNSTREK,QQYDRLPLS,En_HC,2.90,4 of 6
MLSQTVDYNYTAGNSVA,EVTERCN,QQYKQLPLS,En_Gibbs,2.29,5 of 6
KFSASLYRDGSEASSVA,EAEEVRQ,QHYNRLPLG,En_Gibbs,no signal,0 of 6
KSEQSVEYESRNCNGVA,WASTRES,QQYHRLPLF,Ctrl,3.53,1 of 6
KSSQSVLYESRNKNSIA,WASTRES,QQYHRLPLS,Ctrl,2.41,2 of 6
IISGSMLMESRTKNSVA,NAETREY,QHYDRLPLS,En_HC,2.05,3 of 6
KLQTLTYTANIGESSVA,DANVHVD,QQYFRLPLS,En_Gibbs,0.28,6 of 6
TIDDEMPSHGLKWNSIA,GVATVLQ,QQYHRLPLQ,En_Gibbs,2.14,6 of 6
KSSQQVLYEDKQVNSVA,NASQRMS,QQYHRLPLS,GP_Gibbs,0.87,6 of 6
HVSSMDMNDGGIKKSVA,DDKITER,QQYMRLPLS,En_Gibbs,0.96,6 of 6
KITSHIREGTADNNAMA,NADVSHD,QQYSRLPLF,En_Gibbs,1.05,6 of 6
KLSQSKLYESRNKNSVA,EASQRES,QQYHRLPLS,GP_Gen,0.21,6 of 6
KSSQSVLYNSRNKNSVA,WASTRES,QQYYRLPLS,Ctrl,2.22,3 of 6
KVDQSDLYESRNKNSVA,EASTRES,QQYHRLPLS,GP_Gen,0.24,6 of 6
KHSISVMREDRNKNSVA,DASQRES,QQYHRLPLS,GP_Gibbs,0.19,6 of 6
KSSISQLYESRNKNSVA,AASTRES,QQYHRLPLS,GP_HC,0.58,6 of 6
MMSMFPNEPTIDSNAIA,DHVQRNT,QQYDRLPLS,En_Gibbs,no signal,0 of 6
KSSQSFLYESRNVNSVA,GASTRES,QQYHRLPLS,GP_HC,-0.03,6 of 6
KLMQSELYESRNKNSVA,NASTRLS,QQYHRLPLS,GP_Gen,0.16,6 of 6
TISQLHNMGTFAINSVA,QAEIRNE,QQYDRLPLI,En_Gen,1.04,6 of 6
KISMYSNMTFEASNNVA,EMVTREK,QQYNRLPLS,En_Gen,1.65,6 of 6
KYYPSHLYESRNKNSVA,QASTRES,QQYHLLPLS,GP_HC,-0.12,6 of 6
KLQVQKLYWSRNKNSVA,EASTRES,QQYHRLPLS,GP_Gibbs,0.76,6 of 6
KVSQSFLYESRNKNSVA,NASTRES,QQYHRLPLS,GP_Gen,-0.32,6 of 6
KLRQSCEYEDRNKNSVA,HASQRCS,QQYHRLPLS,GP_Gibbs,0.38,6 of 6
SISELYAGWDANNKSIA,ASILQME,QQYHRLPLC,En_Gibbs,1.46,1 of 6
KNSQSVLFEHRNKNSVA,DASSRES,QQYHRLPLS,Rand,0.32,6 of 6
KSSQSVLYESRNFNSVA,KASTRES,QQYHRLPLS,Ctrl,1.56,3 of 6
TLYGLTNSMSKNKDNVA,EMSTREA,QQYDRLPLM,En_Gen,1.59,6 of 6
TISMLSNHMTRNSNNVA,NMDMRED,QQYDRLPLS,En_Gen,0.25,6 of 6
KFSQSVYYESRTKNSVA,NASTRES,QQYHRLPLS,GP_HC,0.18,6 of 6
SLTTVTGQEKVRGNNVA,EMETREN,QQYDRLPLS,En_Gen,0.90,6 of 6
KSSQSHLYESRNKNSVA,DASTRES,QQYHRLPLS,GP_HC,2.70,4 of 6
TLVQSVMGSSRTKNSVA,NAETREQ,QHYHRLPLS,En_HC,1.50,6 of 6
KLSVMTSYLSVNKNSVA,EMTTREN,QQYDRLPLS,En_HC,1.78,6 of 6
KLQNSMLYESRNDNSVA,DASKRES,QAYHRLPLS,GP_Gibbs,0.53,6 of 6
HMSQVTMYGYWHKNSVA,QTSTREE,QQYDRLPLS,En_HC,1.27,5 of 6
KCSQSVLYEGRNKNSVA,AASTRES,QQYHRLPLS,Ctrl,-0.18,6 of 6
MLSDLVKMGSRNNNSVA,DNSTRGS,QQYDRLPLS,En_HC,2.80,3 of 6
MISQLWNMGSFAINSVA,QAEIRNE,QQYDRLPLI,En_Gen,1.60,3 of 6
KLSQVTHSEHRIKNSIA,EMVTREK,QQYDRLPLS,En_HC,1.59,6 of 6
TISYSALMTGNNRNSVA,QAEERLE,QQYHRLPLS,En_HC,0.11,6 of 6

For reference, 3 entries of the list once more:

{"CDR-L1": "KYYPSHLYESRNKNSVA", "CDR-L2": "QASTRES", "CDR-L3": "QQYHLLPLS", "group": "GP_HC", "log10 Kd (nM), mean": "-0.12", "detected": "6 of 6"}
{"CDR-L1": "IIYESVGTLSRNTNSVA", "CDR-L2": "DNSTREK", "CDR-L3": "QQYDRLPLS", "group": "En_HC", "log10 Kd (nM), mean": "2.90", "detected": "4 of 6"}
{"CDR-L1": "KLSQVTHSEHRIKNSIA", "CDR-L2": "EMVTREK", "CDR-L3": "QQYDRLPLS", "group": "En_HC", "log10 Kd (nM), mean": "1.59", "detected": "6 of 6"}